A value given as a limit tells only on which side of the number the result lay.

Chains of the proteins cited; added tags and fusions are not shown. Lines headed by an entry give the natural chain unless they say otherwise; changes in a name come on top.
UniProt P41968: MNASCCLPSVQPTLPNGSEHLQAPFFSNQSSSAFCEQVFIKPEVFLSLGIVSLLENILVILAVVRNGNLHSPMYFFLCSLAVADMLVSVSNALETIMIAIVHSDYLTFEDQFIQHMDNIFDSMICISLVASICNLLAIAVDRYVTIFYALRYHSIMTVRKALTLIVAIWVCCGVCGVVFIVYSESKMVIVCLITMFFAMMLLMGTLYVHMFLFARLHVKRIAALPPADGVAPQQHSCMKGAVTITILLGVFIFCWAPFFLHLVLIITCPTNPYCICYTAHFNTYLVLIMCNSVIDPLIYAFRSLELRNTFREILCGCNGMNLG

In the test the target is human MC3R (Homo sapiens, UniProt P41968). Nature of the test: Melanocortin receptor whole cell cAMP accumulation assay, MC3 (Table 2, MC3 Potency, printed as Ki). In kind it is cell-based. Conditions: HEK 293 cells. For orientation: Cyclic AMP is a second messenger, typically raised through Gs and lowered through Gi signalling.
A word on the Ki: it is a dissociation constant, usually derived from enzyme kinetics or from competition with a known ligand. Lower therefore signals higher affinity. “Ac-Tyr-Arg-cyclo[Cys-Glu-His-D-Phe-Arg-Trp-Cys]-2-(2-aminoethoxy)ethanol [Compound 115]” returned a Ki of 39.8 nM.
The result for “Ac-cyclo[Cys-Lys-His-D-Phe-Arg-Trp-Cys]-NH2 [Compound 16]” reads 303 nM; that for “N-valeryl-cyclo[Cys-Glu-His-D-Phe-Arg-Trp-Cys]-NH2 [Compound 39]”, 234 nM.
“Ac-cyclo[Cys-His-D-Phe-Arg-Trp-hCys]-NH2 [Compound 183]” displayed a Ki of 360 nM.
The result for “Ac-Arg-cyclo[Cys-His-D-Phe-Arg-Trp-hCys]-NH2 [Compound 189]” reads 90.9 nM; that for “N-(4-phenylsulfonamido-4-oxo-butyryl)-cyclo[hCys-His-D-Phe-Arg-Trp-Cys]-NH2 [Compound 152]”, 42.4 nM.
Substance “Ac-cyclo[hCys-His-Phe-Arg-Trp-Cys]-NH2 [Compound 136]” gave a Ki above 500 nM.
Consider “Ac-nLeu-cyclo[Cys-Glu-His-D-Phe-Arg-Trp-Cys]-NH2 [Compound 60]”, for which the affinity corresponds to a Ki of 97.1 nM.
“Ac-Tyr-Arg-cyclo[Cys-Glu-(1-Me-D-His)-(4-Br-D-Phe)-Arg-Trp-Cys]-NH2 [Compound 91]” yielded a Ki of 386 nM.
With “Tyr-Arg-cyclo[hCys-His-D-Phe-Arg-Trp-Cys]-NH2 [Compound 162]” the figure was 2.79 nM; with “cyclo[hCys-His-(4-Cl-D-Phe)-Arg-Trp-Cys]-NH2 [Compound 135]”, 1.02 nM.
“Arg-cyclo[hCys-(1-Me-His)-D-Phe-Arg-Trp-Cys]-NH2 [Compound 156]” returned a Ki of 35.1 nM.
For the substance “Ac-Val-cyclo[Cys-Glu-His-D-Phe-Arg-Trp-Cys]-NH2 [Compound 63]”, the Ki amounted to 266 nM.
In turn, “Ac-Arg-cyclo[hCys-His-D-Phe-Arg-Trp-Cys]-NH2 [Compound 158]” came in with a Ki of 1.91 nM.
“N-propionyl-cyclo[Cys-Glu-His-D-Phe-Arg-Trp-Cys]-NH2 [Compound 37]”: the Ki came to 316 nM.
The substance “Ac-Tyr-Arg-cyclo[Cys-Glu-(1-Me-His)-D-Phe-Arg-Trp-Cys]-NH2 [Compound 81]” yielded a Ki of 496 nM.
For the substance “N-(2-naphthalenesulfonylamino-4-oxo-butyryl)-D-Arg-cyclo[Cys-Glu-His-D-Phe-Arg-Trp-Cys]-NH2 [Compound 65]”, the Ki worked out at 73.1 nM.
The result for “Ac-Tyr-Arg-cyclo[Cys-Glu-His-D-Phe-Arg-Trp-Cys]-Ser-Pro alcohol [Compound 120]” reads 13.5 nM; that for “Ac-cyclo[hCys-His-D-Phe-Arg-Trp-penicillamine]-NH2 [Compound 168]”, 64.4 nM.
Substance “Tyr-Arg-cyclo[Cys-Glu-His-D-Phe-Arg-Trp-Cys]-NH2 [Compound 68]” gave a Ki of 23.2 nM.
With “Ac-Tyr-Arg-cyclo[Cys-Glu-(β-((1-benzyl)-1,2,4-triazol-3-yl))-D-Ala)-D-Phe-Arg-Trp-Cys]-NH2 [Compound 109]” the figure was 333 nM; with “Ac-nLeu-cyclo[Cys-Glu-His-D-Phe-Arg-Trp-Cys]-Ser-Pro-NH2 [Compound 61]”, 37.1 nM; with “N-cyclopentanecarbonyl-cyclo[hCys-His-D-Phe-Arg-Trp-penicillamine]-NH2 [Compound 171]”, 2.5 nM.
The substance “N-(2-naphthalenesulfonyl)-D-Arg-cyclo[Cys-Glu-His-D-Phe-Arg-Trp-Cys]-NH2 [Compound 64]” registered a Ki of 13.2 nM.
Substance “Ac-Tyr-Arg-cyclo[Cys-Glu-(1-Me-His)-(4-F-D-Phe)-Arg-Trp-Cys]-NH2 [Compound 84]” displayed a Ki of 218 nM.
In turn, “N-benzoyl-cyclo[hCys-His-D-Phe-Arg-Trp-penicillamine]-NH2 [Compound 173]” registered a Ki of 9.65 nM.
On to “Ac-cyclo[Cys-Gln-His-D-Phe-Arg-Trp-Cys]-NH2 [Compound 8]”, for which the Ki turned out to be 27.6 nM.
“N-glutaryl-Tyr-Arg-cyclo[Cys-Glu-His-D-Phe-Arg-Trp-Cys]-OH [Compound 76]” registered a Ki of at least 500 nM.
With “N-cyclobutanecarbonyl-cyclo[hCys-His-D-Phe-Arg-Trp-Cys]-NH2 [Compound 142]” the figure was 1.96 nM; with “Arg-cyclo[hCys-His-D-Phe-Arg-Trp-Cys]-NH2 [Compound 153]”, 4.11 nM.
Consider “Ac-Tyr-Arg-cyclo[Cys-Val-His-D-Phe-Arg-Trp-Cys]-NH2 [Compound 25]”, for which the Ki came out at 37 nM.
As for “Ac-Arg-cyclo[Cys-Glu-His-(4-Cl-D-Phe)-Arg-Trp-Cys]-NH2 [Compound 50]”, the affinity, expressed as Ki, was 2.89 nM.
In turn, “Ac-cyclo[Cys-Glu-His-D-Phe-Arg-Trp-Cys]-Ser-Pro-NH2 [Compound 36]” registered a Ki of 127 nM.
Take “Tyr-Arg-cyclo[Cys-Glu-His-D-Phe-Arg-Trp-Cys]-OH [Compound 69]”: the inhibitory constant (Ki) was determined as 222 nM.
“3-guanidinopropionyl-cyclo[Cys-Glu-His-D-Phe-Arg-Trp-Cys]-NH2 [Compound 40]” had a Ki of 62.3 nM.
As for “Arg-cyclo[hCys-(1-Me-D-His)-D-Phe-Arg-Trp-Cys]-NH2 [Compound 157]”, the Ki is 355 nM.
In turn, “Ac-Arg-cyclo[Cys-Glu-(1-Me-His)-D-Phe-Arg-Trp-Cys]-NH2 [Compound 51]” showed a Ki of 429 nM.
On to “Ac-Tyr-Arg-cyclo[Cys-Arg-His-D-Phe-Arg-Trp-Cys]-NH2 [Compound 4]”, for which affinity was put at a Ki of 29.7 nM.
The result for “Ac-Tyr-Arg-cyclo[Cys-Glu-(1-Me-His)-(4-OMe-D-Phe)-Arg-Trp-Cys]-NH2 [Compound 94]” reads 157 nM; that for “Ac-Cit-cyclo[Cys-Glu-His-D-Phe-Arg-Trp-Cys]-NH2 [Compound 55]”, 174 nM.
The substance “Ac-Tyr-Arg-cyclo[Cys-Glu-His-D-Phe-Arg-Trp-Cys]-Ser-Pro-NH2 [Compound 119]” had a Ki of 16.1 nM.
As to “Ac-Arg-cyclo[Cys-Glu-His-D-Phe-Arg-Trp-Cys]-NH2 [Compound 48]”, the Ki was determined as 29.3 nM.
With “N-butyryl-cyclo[Cys-Glu-His-D-Phe-Arg-Trp-Cys]-NH2 [Compound 38]”, affinity was put at a Ki of 320 nM.
“Ac-Tyr-Arg-cyclo[Cys-Glu-(1-Bom-His)-D-Phe-Arg-Trp-Cys]-NH2 [Compound 101]”: the Ki is 26.4 nM.
With “Ac-Tyr-Arg-cyclo[Cys-Glu-(1-Me-His)-(4-Br-D-Phe)-Arg-Trp-Cys]-NH2 [Compound 90]” the figure was 16.8 nM; with “Ac-cyclo[Cys-His-(4-F-D-Phe)-Arg-Trp-hCys]-NH2 [Compound 184]”, 128 nM.
In turn, “Ac-cyclo[Cys-Glu-His-(4-F-D-Phe)-Arg-Trp-Cys]-NH2 [Compound 31]” came in with a Ki of 104 nM.
The result for “Ac-Tyr-Arg-cyclo[Cys-Glu-(1-Me-D-His)-(4-Cl-D-Phe)-Arg-Trp-Cys]-NH2 [Compound 88]” reads at least 500 nM; that for “Arg-cyclo[Cys-His-(4-Cl-D-Phe)-Arg-Trp-hCys]-NH2 [Compound 188]”, 12.6 nM; that for “Ac-Tyr-Arg-cyclo[Cys-Glu-His-D-Phe-Arg-Trp-Cys]-Lys-Pro alcohol [Compound 122]”, 3.96 nM.
“Ac-Tyr-Arg-cyclo[Cys-Glu-His-D-Phe-Arg-Trp-Cys]-Ser alcohol [Compound 116]” displayed a Ki of 69.3 nM.
“Ac-Tyr-Arg-cyclo[Cys-Glu-His-(4-Me-D-Phe)-Arg-Trp-Cys]-NH2 [Compound 92]”: the Ki was determined as 8.56 nM.
On to “Ac-Tyr-Arg-cyclo[hCys-His-D-Phe-Arg-Trp-hCys]-NH2 [Compound 196]”, for which the Ki was found to be 85.1 nM.
The result for “Ac-Tyr-Cit-cyclo[Cys-Glu-(1-Me-His)-D-Phe-Arg-Trp-Cys]-NH2 [Compound 125]” reads at least 500 nM; that for “Ac-Orn-cyclo[Cys-Glu-His-D-Phe-Arg-Trp-Cys]-NH2 [Compound 62]”, 137 nM; that for “N-benzoyl-cyclo[hCys-His-D-Phe-Arg-Trp-Cys]-NH2 [Compound 146]”, 3.28 nM.
Regarding “Ac-Tyr-Arg-cyclo[Cys-Glu-(1-benzyl-His)-D-Phe-Arg-Trp-Cys]-NH2 [Compound 99]”, affinity was put at a Ki of 210 nM.
Turning to “Ac-Tyr-Arg-cyclo[Cys-Glu-His-D-Phe-Arg-Trp-Cys]-Arg-Phe-NH2 [Compound 123]”, the affinity corresponds to a Ki of 13.4 nM.
With “Ac-Tyr-Arg-cyclo[Cys-Glu-His-(4-OMe-D-Phe)-Arg-Trp-Cys]-NH2 [Compound 93]” the figure was 16.7 nM; with “N-methyl-Tyr-Arg-cyclo[Cys-Met-His-D-Phe-Arg-Trp-Cys]-NH2 [Compound 17]”, 26.1 nM; with “Ac-Tyr-Arg-cyclo[Cys-Glu-His-D-Phe-Arg-Trp-Cys]-Glu-NH2 [Compound 118]”, 127 nM.
The substance “Ac-hArg-cyclo[Cys-Glu-His-D-Phe-Arg-Trp-Cys]-NH2 [Compound 54]” returned a Ki of 53.5 nM.
Take “Ac-cyclo[Cys-His-(4-Cl-D-Phe)-Arg-Trp-hCys]-NH2 [Compound 185]”: the affinity, expressed as Ki, was 12.7 nM.
“Ac-Tyr-Arg-cyclo[Cys-Glu-(β-(pyridin-4-yl)-Ala)-D-Phe-Arg-Trp-Cys]-NH2 [Compound 113]” gave a Ki of 260 nM.
“Ac-Tyr-Arg-cyclo[Cys-Glu-(1-benzyl-D-His)-D-Phe-Arg-Trp-Cys]-NH2 [Compound 100]” yielded a Ki of at least 500 nM.
With “Ac-cyclo[Cys-Glu-His-(4-Cl-D-Phe)-Arg-Trp-Cys]-NH2 [Compound 32]” the figure was 17.1 nM.
The substance “Ac-cyclo[hCys-His-(β-cyclohexyl-D-Ala)-Arg-Trp-Cys]-NH2 [Compound 167]” gave a Ki of at least 500 nM.
“Ac-Tyr-Arg-cyclo[Cys-Glu-(1-pyrazolyl-Ala)-D-Phe-Arg-Trp-Cys]-NH2 [Compound 102]” returned a Ki of at least 500 nM.
The result for “Arg-cyclo[Cys-Glu-His-D-Phe-Arg-Trp-Cys]-OH [Compound 45]” reads at least 500 nM.
The result for “Ac-Arg-cyclo[Cys-Cya-His-D-Phe-Arg-Trp-Cys]-NH2 [Compound 26]” reads 58.8 nM.
As to “3-guanidinopropionyl-cyclo[hCys-His-D-Phe-Arg-Trp-Cys]-NH2 [Compound 148]”, the affinity corresponds to a Ki of 2.86 nM.
As to “Ac-cyclo[Cys-Glu-(1-Me-His)-D-Phe-Arg-Trp-Cys]-NH2 [Compound 34]”, the Ki is at least 500 nM.

Source of the values: patent publication US20060293223A1 (Eli Lilly and Company Patent Division, priority 2003, published 2006).
